Reference: patent publication US9176117B2, “Macrophage hazardous material detection” (dated 2015)

Experiments:
[1] = test system: Phospholipase A2 (PLA2) activity in Sentinel Cells; test: Phospholipase A2 activity in Sentinel Cells (PED6 cleavage fluorescence); details: PETN at 50 nm in solution; FIG. 3A
[2] = test system: nitric oxide synthase (NOS) activity in Sentinel Cells; test: Nitric oxide / nitric oxide synthase activity in Sentinel Cells (DAF-FM diacetate fluorescence); details: RDX 50 nm in solution

SMILES | phospholipase A2 activity [1] | time after exposure to marked increase in cytoplasmic NO levels [2] [min] | cytoplasmic NO levels ([2]; FIG. 2D)
O=[N+]([O-])OCC(CO[N+](=O)[O-])(CO[N+](=O)[O-])CO[N+](=O)[O-] | rapid increase |  | 
O=[N+]([O-])N1CN([N+](=O)[O-])CN([N+](=O)[O-])C1 |  | ≤ 10 | marked increase

This is a selection: effects in other tests are not listed, and their absence says nothing.
